Vapor pressure values, as collected for the OPERA models

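The numbers are reported measurements, compiled and curated for the OPERA QSAR suite. The files give a single number for a compound and property, which may rest on several reports. Method and conditions are not stated for these values. A value may pool stereoisomers or salt forms, and the file does not say which form was measured. Some entries may be limits or estimates that an upstream database listed as plain numbers.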

Vapor pressures (log10 mmHg) refer to near room temperature, 15 to 30 °C; higher is more volatile.
"via" names the databases from which the curators took the value.

* C=CC(=O)OCCOCCOCCOCCOC(=O)C=C: log VP -5.806 (log10 mmHg) (via eChemPortal)
* Cc1ccc(C)o1: log VP 1.724 (log10 mmHg) (via PubChem)
* Clc1ccccc1-c1c(Cl)c(Cl)c(Cl)c(Cl)c1Cl: log VP -4.595 (log10 mmHg) (via OCHEM)
* CC(C)(N=NC(C)(C)C1=NCCN1)C1=NCCN1.Cl.Cl: log VP -5.347 (log10 mmHg) (via eChemPortal)
* CC(=O)c1ccc(O)cc1: log VP -4.771 (log10 mmHg) (via eChemPortal)
* c1ccc2scnc2c1: log VP -1.854 (log10 mmHg) (via OCHEM, OFMPub)
* OCCCOCCCO: log VP -2.871 (log10 mmHg) (via eChemPortal)
* Clc1cc(Cl)cc(-c2ccc(Cl)c(Cl)c2)c1: log VP -4.804 (log10 mmHg) (via OCHEM)
* Clc1cc(-c2c(Cl)c(Cl)c(Cl)c(Cl)c2Cl)cc(Cl)c1Cl: log VP -6.545 (log10 mmHg) (via OCHEM)
* Clc1cccc(-c2c(Cl)c(Cl)cc(Cl)c2Cl)c1: log VP -4.355 (log10 mmHg) (via OCHEM)
* c1ccc2[nH]nnc2c1: log VP -1.398 (log10 mmHg) (via OCHEM)
* O=C(O)c1c(Cl)c(Cl)c(Cl)c(Cl)c1C(O)=Nc1cccc(Cl)c1Cl: log VP -7.213 (log10 mmHg) (via OCHEM)
* CCCC[Si](C)(C)O[Si](C)(C)O[Si](C)(C)O[Si](C)(C)O[SiH](C)C: log VP -1.601 (log10 mmHg) (via eChemPortal)
* COC(OC)OC: log VP 1.709 (log10 mmHg) (via eChemPortal)
* CC1(C)S[C@@H]2[C@H](NC(=O)[C@H](N)c3ccc(O)cc3)C(=O)N2[C@H]1C(=O)O: log VP -11.68 (log10 mmHg) (via eChemPortal)
* CCNC(=O)[C@@H](C)OC(=O)Nc1ccccc1: log VP -8.648 (log10 mmHg) (via OCHEM)
* N=C(N)S(=O)O: log VP -6.013 (log10 mmHg) (via eChemPortal)
* CC(O)C#CC(C)O (stereo not given): log VP -2.886 (log10 mmHg) (via eChemPortal)
* O=C=Nc1ccc(Cl)c(C(F)(F)F)c1: log VP -0.034 (log10 mmHg) (via eChemPortal)
* Clc1ccccc1-c1c(Cl)ccc(Cl)c1Cl: log VP -3.183 (log10 mmHg) (via OCHEM)
* C=C(CC(=O)OC)C(=O)OC: log VP -1.517 (log10 mmHg) (via eChemPortal)
* Cc1cccc(Cc2ccccc2)c1Cc1ccccc1: log VP -5.018 (log10 mmHg) (via eChemPortal)
* CC1(C)CC(N=C=O)CC(C)(CN=C=O)C1 (stereo not given): log VP -3.523 (log10 mmHg) (via PubChem, eChemPortal)
* CCO[Si](C)(CCCN([Si](C)(C)C)[Si](C)(C)C)OCC: log VP -2.438 (log10 mmHg) (via eChemPortal)
* Oc1cc(Cl)c(Cl)c(Cl)c1O: log VP -3.095 (log10 mmHg) (via OCHEM)
* CCOC(C)N1CC(C)OC1=O (stereo not given): log VP -2.058 (log10 mmHg) (via eChemPortal)
* O=C(O)c1cccc2ccccc12: log VP -5.054 (log10 mmHg) (via OCHEM)
* Clc1ccc(-c2cc(Cl)cc(Cl)c2Cl)c(Cl)c1: log VP -4.245 (log10 mmHg) (via OCHEM)
* CC(N)(CO)CO: log VP -3.763 (log10 mmHg) (via eChemPortal)
* O=C1OC(=O)c2cc(S(=O)(=O)c3ccc4c(c3)C(=O)OC4=O)ccc21: log VP -12.52 (log10 mmHg) (via eChemPortal)
* Brc1ccc(Oc2c(Br)cc(Br)cc2Br)cc1: log VP -5.433 (log10 mmHg) (via OCHEM)
* CCCCC(CC)C(=O)OC(C)C (stereo not given): log VP 0.462 (log10 mmHg) (via eChemPortal)
* CC/C=C\CCO: log VP 0.229 (log10 mmHg) (via eChemPortal)
* CC/C=C\CCCCCCCCCCO: log VP -2.824 (log10 mmHg) (via OCHEM)
* COC(OC)N(C)C: log VP 1.472 (log10 mmHg) (via eChemPortal)
* NCCCN: log VP 0.591 (log10 mmHg) (via eChemPortal)
* CCOc1ccccc1O: log VP -1.042 (log10 mmHg) (via eChemPortal)
* C=CCOCC=C: log VP 1.638 (log10 mmHg) (via PubChem)
* NCC(=O)O.[Zn]: log VP -10.25 (log10 mmHg) (via eChemPortal)
* O=C(O)[C@H](O)[C@@H](O)C(=O)O: log VP -7.068 (log10 mmHg) (via OCHEM, eChemPortal)
* C=C(C)CNCC: log VP 1 (log10 mmHg) (via eChemPortal)
* CC(O)CN(CCO)CCO (stereo not given): log VP -4.201 (log10 mmHg) (via eChemPortal)
* Clc1cccc(-c2c(Cl)cc(Cl)c(Cl)c2Cl)c1Cl: log VP -5.025 (log10 mmHg) (via OCHEM)
* CCOC(=O)c1cnn(C)c1S(=O)(=O)NC(=O)Nc1nc(OC)cc(OC)n1: log VP -6.959 (log10 mmHg) (via OCHEM)
* O=c1nc[nH]c2nc[nH]c12.[Na]: log VP -9.634 (log10 mmHg) (via eChemPortal)
* CC(O)c1ccccc1 (stereo not given): log VP -1 (log10 mmHg) (via eChemPortal)
* CCOC(F)(F)C(F)(F)C(F)(F)C(F)(F)F: log VP 2.008 (log10 mmHg) (via ICF)
* Clc1cc(Cl)cc(-c2c(Cl)cc(Cl)cc2Cl)c1: log VP -4.554 (log10 mmHg) (via OCHEM)
* c1c[nH]cn1: log VP -2.648 (log10 mmHg) (via PubChem, eChemPortal)
* CC(C)CCC[C@@H](C)[C@H]1CC[C@H]2[C@@H]3CC=C4C[C@@H](O)CC[C@]4(C)[C@H]3CC[C@]12C: log VP -9.273 (log10 mmHg) (via eChemPortal)
* NC(=O)c1ccccc1N: log VP -5.171 (log10 mmHg) (via eChemPortal)
* CCCCCCCCCCCCCCCC(=O)OC/C=C(C)/C=C/C=C(C)/C=C/C1=C(C)CCCC1(C)C: log VP -6.417 (log10 mmHg) (via eChemPortal)

Excerpt, the final 5 entries:

SMILES	log VP (log10 mmHg)	via
Clc1cc(Cl)cc(-c2c(Cl)cc(Cl)cc2Cl)c1	-4.554	OCHEM
c1c[nH]cn1	-2.648	PubChem, eChemPortal
CC(C)CCC[C@@H](C)[C@H]1CC[C@H]2[C@@H]3CC=C4C[C@@H](O)CC[C@]4(C)[C@H]3CC[C@]12C	-9.273	eChemPortal
NC(=O)c1ccccc1N	-5.171	eChemPortal
CCCCCCCCCCCCCCCC(=O)OC/C=C(C)/C=C/C=C(C)/C=C/C1=C(C)CCCC1(C)C	-6.417	eChemPortal

From the experimental data distributed with OPERA 2.9.